In patent US20240245770A1, “COMPOSITIONS AND METHODS FOR TREATING NEUROMUSCULAR DISORDERS” (The Regents of the University of California, priority 2019, published 2024):

What was measured:
[1] = test system: ALS; conditions: cited from earlier work
[2] = test system: serum cytokine/chemokine/growth factor/ligands of ALS patient; test: Serum Luminex, before and after NAC treatment; assay type: in vivo, human
Experimental: (§1) Increased cytokine/chemokine/growth factor/ligands in serum of ALS patient compared to healthy twin and control (Tables 85-86 and FIG. 69). Serum Luminex. Serum from patients were used to determine the levels of cytokine/chemokine/growth factor/ligands secretion using multiplex luminex assay. Scatter plot was prepared using the levels of cytokine/chemokine/growth factor/ligands in serum obtained at different dates from patients as compared to controls.
Increased cytokine/chemokine/growth factor/ligands in serum of ALS patients compared to healthy twin (Tables 87-89). Serum Luminex. Serum from patients were used to determine the levels of cytokine/chemokine/growth factor/ligands secretion using multiplex luminex assay.
as §1, with “21 plex before NAC.” for “Increased cytokine/chemokine/growth factor/ligands in serum of ALS patient compared to healthy twin and control (Tables 85-86 and FIG. 69).”
as §1, with “Serum” for “Increased cytokine/chemokine/growth factor/ligands in serum of ALS patient compared to healthy twin and control (Tables 85-86 and FIG. 69). Serum”
Fold increase in respective cytokines before and after NAC treatment in serum from ALS patient as compared to healthy twin. […] Serum Luminex. Serum from patients were used to determine the levels of cytokine/chemokine/growth factor/ligands secretion using multiplex luminex assay. Scatter plot was prepared using the levels of cytokine/chemokine/growth factor/ligands in serum obtained at different dates from patients as compared to controls.

[3] = JC sera Apr. 30, 2020 (NAC infusion)

Row | SMILES | increase of survival rates at 12 months [1] [%] | prolongation of survival [1] [months] | IL-5 ([2]; Ave JC 4/5 to 6/24) | IL-5 ([2]; Ave JC sera for NAC infusion) [pg/mL] | IL-6 ([2]; JC sera Apr. 16, 2020) [pg/mL] | IL-6 ([2]; JC sera Apr. 23, 2020) [pg/mL] | IL-6 ([2]; JC sera Apr. 30, 2020) [pg/mL] | IL-13 [2, 3] [pg/mL] | IL-17A [2, 3] [pg/mL] | IL-6 ([2]; JC sera Jun. 24, 2020) [pg/mL] | IL-5 ([2]; JC sera May 12, 2020) [pg/mL] | IL-17A ([2]; JC sera May 21, 2020 (NAC infusion)) [pg/mL]
1 | Nc1nc2ccc(OC(F)(F)F)cc2s1 [Riluzole] | 10 | 6 | – | – | – | – | – | – | – | – | – | –
2 | CC(=O)N[C@@H](CS)C(=O)O [NAC, N-Acetyl-Cysteine] | – | – | 2.13 | 2.13 | 1.55 | 1.55 | 2.34 | 4.26 | 5.22 | 1.31 | 2.05 | 2.85
